## AlphaSeq binding of Ab-95 light chain variants to a spike HR2 peptide

Reference: Engelhart et al. 2022, doi:10.1038/s41597-022-01779-4. File: FLAb, binding data.

Target peptide (SARS-CoV-2 spike, HR2 region): PDVDLGDISGINAS

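AAYL52 was designed without a model: most single CDR substitutions and a random sample of double and triple ones. AlphaSeq pools MATa yeast showing the antibodies with MATalpha yeast showing the peptide. Binding brings cells together so that they mate, and sequencing counts the barcode pairs among the diploids. Read counts were normalised to the haploid input and turned into Kd by a linear fit to BCL2-family pairs of known affinity, for each replicate. Each pool was mated in three replicate cultures.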

The variants keep the heavy chain, the linker and the frameworks of Ab-95 (scFv order VH, a (GGGGS)3 linker, VL).
VH: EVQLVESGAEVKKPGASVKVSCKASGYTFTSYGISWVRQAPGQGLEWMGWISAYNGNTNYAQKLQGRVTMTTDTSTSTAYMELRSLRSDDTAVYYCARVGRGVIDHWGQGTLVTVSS
VL: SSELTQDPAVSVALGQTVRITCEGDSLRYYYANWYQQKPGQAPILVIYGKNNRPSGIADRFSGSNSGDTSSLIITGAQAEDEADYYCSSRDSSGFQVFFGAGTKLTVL

Substitutions are numbered in sequence along the VL above, starting at 1 (not Kabat). The read-out is the apparent dissociation constant on a log10 scale (nM): the lower, the stronger. A mean of the replicates is given; it leaves out those without a signal. Where no diploid with the target was found in that replicate, the entry reads "nd": below detection, most likely a poor binder, though not proof of it. Three control strains display no target. For library AAYL52, 28% of the pairings with them gave a signal, with a median of 3.91 and one signal in twenty below 2.90, so weak values seen in few replicates may be background. The control count says in how many pairings with the empty strains this scFv gave a signal, with their mean in brackets.

{"changes": "D25S/L27Q/S92Q", "log10 Kd (nM) by replicate": "1.78 2.02 1.09", "mean log10 Kd (nM)": "1.63", "signal with controls": "1 of 9 (4.63)"}
{"changes": "Y30C/N33K/G49F", "log10 Kd (nM) by replicate": "nd 3.12 3.25", "mean log10 Kd (nM)": "3.18", "signal with controls": "3 of 9 (4.07)"}
{"changes": "E23D/K50P/F98V", "log10 Kd (nM) by replicate": "nd nd nd", "mean log10 Kd (nM)": "nd", "signal with controls": "0 of 9"}
{"changes": "D25A/S55K/V97G", "log10 Kd (nM) by replicate": "nd nd nd", "mean log10 Kd (nM)": "nd", "signal with controls": "0 of 9"}
{"changes": "G49R/S89H", "log10 Kd (nM) by replicate": "2.68 3.89 4.40", "mean log10 Kd (nM)": "3.65", "signal with controls": "3 of 9 (4.10)"}
{"changes": "R28E/R90N", "log10 Kd (nM) by replicate": "nd nd nd", "mean log10 Kd (nM)": "nd", "signal with controls": "0 of 9"}
{"changes": "L27D/Y29H/G94W", "log10 Kd (nM) by replicate": "nd nd nd", "mean log10 Kd (nM)": "nd", "signal with controls": "0 of 9"}
{"changes": "L27K/G49C/R90Q", "log10 Kd (nM) by replicate": "nd 3.58 nd", "mean log10 Kd (nM)": "3.58", "signal with controls": "4 of 9 (3.63)"}
{"changes": "S26L/G94K/Q96F", "log10 Kd (nM) by replicate": "3.34 nd nd", "mean log10 Kd (nM)": "3.34", "signal with controls": "2 of 9 (4.34)"}
{"changes": "L27W/A32E/S55V", "log10 Kd (nM) by replicate": "4.19 3.77 nd", "mean log10 Kd (nM)": "3.98", "signal with controls": "2 of 9 (3.77)"}
{"changes": "S26H/N51M/F98C", "log10 Kd (nM) by replicate": "5.31 nd nd", "mean log10 Kd (nM)": "5.31", "signal with controls": "4 of 9 (3.76)"}
{"changes": "G24V/A32P/V97Y", "log10 Kd (nM) by replicate": "3.16 4.09 4.28", "mean log10 Kd (nM)": "3.84", "signal with controls": "4 of 9 (4.30)"}
{"changes": "N33Y/R53G/D91T", "log10 Kd (nM) by replicate": "4.74 nd nd", "mean log10 Kd (nM)": "4.74", "signal with controls": "3 of 9 (3.39)"}
{"changes": "A32E/F95N/F98C", "log10 Kd (nM) by replicate": "nd 3.58 nd", "mean log10 Kd (nM)": "3.58", "signal with controls": "0 of 9"}
{"changes": "S55Y/R90D/D91W", "log10 Kd (nM) by replicate": "nd 3.23 3.13", "mean log10 Kd (nM)": "3.18", "signal with controls": "3 of 9 (3.88)"}
{"changes": "R28A/A32R/K50S", "log10 Kd (nM) by replicate": "3.84 3.56 4.42", "mean log10 Kd (nM)": "3.94", "signal with controls": "2 of 9 (4.18)"}
{"changes": "D25L/S88W/F98P", "log10 Kd (nM) by replicate": "3.39 nd nd", "mean log10 Kd (nM)": "3.39", "signal with controls": "2 of 9 (3.42)"}
{"changes": "L27M/N33A/V97A", "log10 Kd (nM) by replicate": "nd 4.57 nd", "mean log10 Kd (nM)": "4.57", "signal with controls": "3 of 9 (4.03)"}
{"changes": "Y29T/Y31I/A32Y", "log10 Kd (nM) by replicate": "nd nd 3.95", "mean log10 Kd (nM)": "3.95", "signal with controls": "2 of 9 (4.12)"}
{"changes": "G24K/Y29M/F95H", "log10 Kd (nM) by replicate": "nd 3.46 nd", "mean log10 Kd (nM)": "3.46", "signal with controls": "2 of 9 (3.90)"}

The 2 strongest on average among those seen in every replicate, once more:

changes,log10 Kd (nM) by replicate,mean log10 Kd (nM),signal with controls
D25S/L27Q/S92Q,1.78 2.02 1.09,1.63,1 of 9 (4.63)
G49R/S89H,2.68 3.89 4.40,3.65,3 of 9 (4.10)